US9855286B2, “Pharmaceutical composition comprising (1r,4r)-6′-fluoro-N,N-di methyl-4-phenyl-4′,9′-dihydro-3′H-spiro[cyclohexane-1,1′-pyrano-[3,4,b]indol]-4-amine and a salicylic acid component” (dated 2018)
Read-outs that look alike come from different tables or passages of the source.

System: male albino rats (Sprague Dawley)
Conditions: alone, dose 0.00464 mg/kg i.v., Mean ± SEM, n = 10

SMILES: CN(C)[C@]1(c2ccccc2)CC[C@]2(CC1)OCCc1c3cc(F)ccc3[nH]c12
- % MPE (Maximum possible effect) (30 min. post administration): 12.2 ± 2.69 % MPE
- % MPE (Maximum possible effect) (60 min. post administration): 10.6 ± 3.51 % MPE
- % MPE (Maximum possible effect) (90 min. post administration): 2.88 ± 2.27 % MPE
